Experiments:
[1] = target: Nitric oxide synthase 1 (Rattus norvegicus) (UniProt P29476); assay: Inhibition of nNOS in LPS-stimulated Wistar rat striata assessed as inhibition of [3H]L-arginine to [3H]L-citrulline conversion at 1 mM by liquid scintillation counting
Outline: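 Striata from untreated male Wistar rats (200–250 g) were sonicated in Tris pH 7.6 buffer with protease inhibitors and spun at 1000g for 5 min. The supernatant was incubated 30 min at 37 °C with 10 µM L-arginine, 40 nM L-³H-arginine, 0.1 mM CaCl₂, H₄-biopterin, FAD and 0.75 mM NADPH (final). Blanks lacked NADPH. ³H-citrulline was separated on Dowex-50W; compounds at 1 mM.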

By UniProt entry, the sequences of proteins in these tests, tags left out.
UniProt P29476, whole entry, looked up: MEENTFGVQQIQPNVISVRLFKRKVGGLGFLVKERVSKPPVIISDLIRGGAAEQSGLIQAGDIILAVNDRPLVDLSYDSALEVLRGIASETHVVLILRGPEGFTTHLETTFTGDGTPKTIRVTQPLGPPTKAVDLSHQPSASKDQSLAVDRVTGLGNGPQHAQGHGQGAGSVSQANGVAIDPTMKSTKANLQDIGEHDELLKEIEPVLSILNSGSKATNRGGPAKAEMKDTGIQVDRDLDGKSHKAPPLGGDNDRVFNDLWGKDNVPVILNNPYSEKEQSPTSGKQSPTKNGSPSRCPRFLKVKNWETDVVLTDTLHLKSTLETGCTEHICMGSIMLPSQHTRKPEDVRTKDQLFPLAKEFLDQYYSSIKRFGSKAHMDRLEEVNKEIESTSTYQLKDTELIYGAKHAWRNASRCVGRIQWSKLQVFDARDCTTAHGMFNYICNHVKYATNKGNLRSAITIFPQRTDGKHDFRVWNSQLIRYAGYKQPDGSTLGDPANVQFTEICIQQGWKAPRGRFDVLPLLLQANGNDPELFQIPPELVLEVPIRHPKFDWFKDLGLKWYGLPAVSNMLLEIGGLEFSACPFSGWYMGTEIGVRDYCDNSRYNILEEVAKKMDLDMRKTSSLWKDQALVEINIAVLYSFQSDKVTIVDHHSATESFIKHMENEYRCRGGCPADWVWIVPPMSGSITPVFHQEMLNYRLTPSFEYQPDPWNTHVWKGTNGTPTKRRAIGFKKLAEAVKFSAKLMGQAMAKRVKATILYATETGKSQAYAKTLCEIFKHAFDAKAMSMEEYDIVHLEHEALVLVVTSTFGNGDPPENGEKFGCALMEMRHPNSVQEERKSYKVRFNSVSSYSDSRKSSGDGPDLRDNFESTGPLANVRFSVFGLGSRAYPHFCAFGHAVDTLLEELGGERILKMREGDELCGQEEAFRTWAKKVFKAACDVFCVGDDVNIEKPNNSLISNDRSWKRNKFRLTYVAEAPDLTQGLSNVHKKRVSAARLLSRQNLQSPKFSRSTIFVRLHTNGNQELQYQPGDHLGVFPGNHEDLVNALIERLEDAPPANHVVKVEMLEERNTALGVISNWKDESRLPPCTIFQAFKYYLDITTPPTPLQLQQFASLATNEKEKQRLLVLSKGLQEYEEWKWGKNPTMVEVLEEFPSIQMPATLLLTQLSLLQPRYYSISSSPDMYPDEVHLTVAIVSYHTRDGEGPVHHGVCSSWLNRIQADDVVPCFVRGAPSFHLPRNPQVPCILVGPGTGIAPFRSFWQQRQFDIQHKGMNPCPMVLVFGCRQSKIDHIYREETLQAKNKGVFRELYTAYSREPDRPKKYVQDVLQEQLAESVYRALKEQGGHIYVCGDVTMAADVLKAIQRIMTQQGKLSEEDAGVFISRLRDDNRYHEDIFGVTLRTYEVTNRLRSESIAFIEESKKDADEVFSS
UniProt Q06518, whole entry, looked up: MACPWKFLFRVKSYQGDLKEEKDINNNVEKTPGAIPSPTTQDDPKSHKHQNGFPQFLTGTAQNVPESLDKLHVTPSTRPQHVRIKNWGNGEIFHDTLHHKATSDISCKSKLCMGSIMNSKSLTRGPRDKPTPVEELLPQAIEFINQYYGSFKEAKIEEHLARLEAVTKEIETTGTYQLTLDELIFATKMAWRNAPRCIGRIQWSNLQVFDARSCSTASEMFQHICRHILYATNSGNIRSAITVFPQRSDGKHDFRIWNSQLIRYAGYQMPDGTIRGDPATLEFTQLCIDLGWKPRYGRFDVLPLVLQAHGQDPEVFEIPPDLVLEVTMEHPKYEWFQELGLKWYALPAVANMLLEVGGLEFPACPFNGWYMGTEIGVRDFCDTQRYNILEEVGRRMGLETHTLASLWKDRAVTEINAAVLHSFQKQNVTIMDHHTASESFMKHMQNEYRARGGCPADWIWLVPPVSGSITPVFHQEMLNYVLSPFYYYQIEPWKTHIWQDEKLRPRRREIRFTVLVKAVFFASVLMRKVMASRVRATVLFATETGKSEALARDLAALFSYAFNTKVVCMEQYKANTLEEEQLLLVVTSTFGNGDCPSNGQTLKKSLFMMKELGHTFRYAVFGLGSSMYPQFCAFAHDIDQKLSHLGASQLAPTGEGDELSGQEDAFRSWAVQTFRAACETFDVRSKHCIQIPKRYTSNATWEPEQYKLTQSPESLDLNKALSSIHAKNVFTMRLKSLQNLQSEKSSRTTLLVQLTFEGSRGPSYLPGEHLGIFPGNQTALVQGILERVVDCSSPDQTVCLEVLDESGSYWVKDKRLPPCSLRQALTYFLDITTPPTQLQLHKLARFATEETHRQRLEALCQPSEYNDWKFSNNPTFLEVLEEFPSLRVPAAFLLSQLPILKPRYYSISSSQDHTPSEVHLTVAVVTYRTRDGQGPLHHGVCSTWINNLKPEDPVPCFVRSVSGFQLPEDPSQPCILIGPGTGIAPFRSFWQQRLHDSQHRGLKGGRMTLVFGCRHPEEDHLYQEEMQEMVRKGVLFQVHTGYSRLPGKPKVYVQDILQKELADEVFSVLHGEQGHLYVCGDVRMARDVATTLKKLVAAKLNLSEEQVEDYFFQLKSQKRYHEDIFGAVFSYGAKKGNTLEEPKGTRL

[2] = target: Nitric oxide synthase, inducible (Rattus norvegicus) (UniProt Q06518); assay: Inhibition of iNOS in LPS-stimulated Wistar rat lung assessed as inhibition of [3H]L-arginine to [3H]L-citrulline conversion at 1 mM by liquid scintillation counting
Outline: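 Lungs from male Wistar rats (220–250 g) taken 6 h after i.v. LPS (10 mg/kg in saline), homogenized in Tris buffer pH 7.6 with protease inhibitors, and spun at 2500g. The supernatant was incubated 30 min at 37 °C with 10 µM L-arginine plus 40 nM L-³H-arginine, cofactors, 0.75 mM NADPH (final) and 10 mM EDTA. ³H-citrulline was isolated on Dowex-50W; compounds at 1 mM.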

Rattus norvegicus = species on record: Rattus norvegicus; assay: Selectivity ratio of inhibition of iNOS in Wistar rat lung to inhibition of nNOS in Wistar rat striata

In the case of `O=[N+]([O-])c1n[nH]c2c([N+](=O)[O-])cccc12`, the inhibition [1] is reported as 2.1%, the inhibition [2] is reported as 89.3% and the Ratio (Rattus norvegicus) is reported as 40.

Source: ChEMBL document CHEMBL1759883, “Synthesis and biological evaluation of indazole derivatives” (Eur J Med Chem, 2011)
